ChEMBL document CHEMBL5055662, “Characterization of an aromatic trifluoromethyl ketone as a new warhead for covalently reversible kinase inhibitor design” (Bioorg Med Chem, 2021)

By UniProt entry, the sequences of proteins in these tests, tags left out.
UniProt P22455, whole entry, looked up: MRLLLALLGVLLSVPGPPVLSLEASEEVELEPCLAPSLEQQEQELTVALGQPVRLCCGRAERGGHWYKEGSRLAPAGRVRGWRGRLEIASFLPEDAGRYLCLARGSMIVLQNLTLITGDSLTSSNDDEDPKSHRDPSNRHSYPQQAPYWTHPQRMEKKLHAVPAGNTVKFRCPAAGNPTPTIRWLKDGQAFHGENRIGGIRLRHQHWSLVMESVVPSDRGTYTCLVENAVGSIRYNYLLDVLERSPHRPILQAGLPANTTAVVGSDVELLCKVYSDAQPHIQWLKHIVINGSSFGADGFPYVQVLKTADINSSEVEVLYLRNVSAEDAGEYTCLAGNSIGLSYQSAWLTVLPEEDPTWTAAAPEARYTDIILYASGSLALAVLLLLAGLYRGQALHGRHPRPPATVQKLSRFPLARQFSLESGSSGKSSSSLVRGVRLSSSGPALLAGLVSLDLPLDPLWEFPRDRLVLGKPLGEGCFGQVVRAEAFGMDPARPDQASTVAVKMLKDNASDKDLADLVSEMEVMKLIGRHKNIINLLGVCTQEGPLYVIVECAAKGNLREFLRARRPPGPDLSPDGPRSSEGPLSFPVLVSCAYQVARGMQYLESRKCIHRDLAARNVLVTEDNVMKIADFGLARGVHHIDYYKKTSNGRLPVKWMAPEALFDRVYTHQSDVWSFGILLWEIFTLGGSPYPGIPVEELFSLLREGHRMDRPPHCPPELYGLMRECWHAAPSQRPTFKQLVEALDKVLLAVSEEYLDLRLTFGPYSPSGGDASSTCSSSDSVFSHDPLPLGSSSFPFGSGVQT

Target: Fibroblast growth factor receptor 4 (Homo sapiens) (UniProt P22455)
Assay: Reversible covalent binding affinity to recombinant His-tagged human FGFR4 expressed in baculovirus expression system assessed as recovery of kinase activity preincubated for 120 mins followed by dialysis of protein for 4 days by MALDI-TOF MS analysis relative to control
Details: time 5880.0 min

COCCNc1cc(NC(=O)N2CCCc3cc(CN4CCN(C)CC4=O)c(C=O)nc32)ncc1C#N
Activity: 50%
